Source: ChEMBL document CHEMBL2429856, “Benzazepinones and benzoxazepinones as antagonists of inhibitor of apoptosis proteins (IAPs) selective for the second baculovirus IAP repeat (BIR2) domain” (J Med Chem, 2013)

Chains of the proteins cited; added tags and fusions are not shown.
UniProt P98170, whole entry: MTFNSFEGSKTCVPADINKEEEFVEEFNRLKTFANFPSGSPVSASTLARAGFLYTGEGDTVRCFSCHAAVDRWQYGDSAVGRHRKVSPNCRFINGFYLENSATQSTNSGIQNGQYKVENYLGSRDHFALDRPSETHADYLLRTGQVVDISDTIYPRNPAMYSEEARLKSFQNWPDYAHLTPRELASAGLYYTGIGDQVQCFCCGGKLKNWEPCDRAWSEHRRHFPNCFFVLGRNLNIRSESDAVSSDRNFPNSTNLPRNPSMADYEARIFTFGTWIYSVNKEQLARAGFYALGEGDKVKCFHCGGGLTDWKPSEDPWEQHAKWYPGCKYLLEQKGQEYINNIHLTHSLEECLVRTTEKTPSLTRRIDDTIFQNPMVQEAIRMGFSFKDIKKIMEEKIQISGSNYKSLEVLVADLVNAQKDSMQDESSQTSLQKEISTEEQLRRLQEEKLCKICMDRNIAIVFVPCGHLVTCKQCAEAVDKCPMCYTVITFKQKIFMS

Target: E3 ubiquitin-protein ligase XIAP (Homo sapiens, UniProt P98170)

| SMILES | IC50 [µM] |
| --- | --- |
| CN[C@@H](C)C(=O)N[C@H]1COc2ccccc2N(Cc2c(OC)ccc3cc(Br)ccc23)C1=O | > 54 |
| CN[C@@H](C)C(=O)N[C@@H]1C(=O)N(Cc2noc3ccccc23)c2ccccc2OC12CCOCC2 | > 54.8 |
